Test system: NADPH
Test: purified protein, by the assay type
Details: 37.0 °C
[1] = other: cofactor varied, Menadione (100 μM printed for NADPH)

**Q.** How did the Km (other: 20 μM menadione, pH 7.0) turn out when “C. jejuni NfnB (Campylobacter jejuni subsp. jejuni NCTC 11168 = ATCC 700819)” was run?
**A.** The Km was 69.6 ± 8.8 μM μM.

**Q.** How did the Km [1] turn out when “YdgI (Bacillus subtilis subsp. subtilis str. 168)” was run?
**A.** Its Km is 295.0 ± 29 µM.

**Q.** And the kcat [1]?
**A.** The kcat was 96 s⁻¹.

**Q.** What about the kcat/Km [1] of the same substance?
**A.** The kcat/Km was 300000 M⁻¹ s⁻¹.

**Q.** “H. influenzae NfnB (Haemophilus influenzae Rd KW20)” was tested. Which Km (other: menadione 100 μM, pH 7.0) did it give?
**A.** The Km was 2.9 ± 0.5 μM μM.
